Assay: in vivo
Details: mouse, ip, white mice, intraperitoneal, read-out: LD50 for white mice upon intraperitoneal administration

Structure (SMILES): CCOC(=O)COc1ccc2c(C)c(CCN(CC)CC)c(=O)oc2c1 [Carbocromene, reference compound]
- LD50: 640 mg/kg

Source: patent publication US4252956A, “Derivatives of 1,4-dihydropyridine-3-carbothiol acids” (priority 1979, dated 1981)
